Molecules are shown by their SMILES.

Chains of the proteins cited; added tags and fusions are not shown.
UniProt Q15910, whole entry: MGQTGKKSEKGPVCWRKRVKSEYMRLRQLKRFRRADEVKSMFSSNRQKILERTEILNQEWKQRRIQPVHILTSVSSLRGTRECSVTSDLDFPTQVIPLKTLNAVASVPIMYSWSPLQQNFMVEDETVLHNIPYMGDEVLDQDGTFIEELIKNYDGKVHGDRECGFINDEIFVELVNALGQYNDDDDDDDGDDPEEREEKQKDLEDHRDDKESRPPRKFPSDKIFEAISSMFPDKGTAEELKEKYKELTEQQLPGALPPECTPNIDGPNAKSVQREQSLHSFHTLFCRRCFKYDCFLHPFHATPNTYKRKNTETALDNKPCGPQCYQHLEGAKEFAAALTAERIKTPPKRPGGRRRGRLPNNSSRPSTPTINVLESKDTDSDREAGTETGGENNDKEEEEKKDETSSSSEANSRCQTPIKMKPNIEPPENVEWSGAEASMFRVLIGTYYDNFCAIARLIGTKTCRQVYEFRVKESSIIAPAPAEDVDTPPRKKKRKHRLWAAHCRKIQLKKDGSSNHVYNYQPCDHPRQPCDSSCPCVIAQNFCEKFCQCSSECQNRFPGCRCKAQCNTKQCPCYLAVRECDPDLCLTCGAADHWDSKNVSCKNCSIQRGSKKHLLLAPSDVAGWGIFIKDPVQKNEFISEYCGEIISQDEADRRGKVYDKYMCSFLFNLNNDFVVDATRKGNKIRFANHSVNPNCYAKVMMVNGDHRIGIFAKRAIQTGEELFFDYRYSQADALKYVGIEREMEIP
UniProt P31645, whole entry: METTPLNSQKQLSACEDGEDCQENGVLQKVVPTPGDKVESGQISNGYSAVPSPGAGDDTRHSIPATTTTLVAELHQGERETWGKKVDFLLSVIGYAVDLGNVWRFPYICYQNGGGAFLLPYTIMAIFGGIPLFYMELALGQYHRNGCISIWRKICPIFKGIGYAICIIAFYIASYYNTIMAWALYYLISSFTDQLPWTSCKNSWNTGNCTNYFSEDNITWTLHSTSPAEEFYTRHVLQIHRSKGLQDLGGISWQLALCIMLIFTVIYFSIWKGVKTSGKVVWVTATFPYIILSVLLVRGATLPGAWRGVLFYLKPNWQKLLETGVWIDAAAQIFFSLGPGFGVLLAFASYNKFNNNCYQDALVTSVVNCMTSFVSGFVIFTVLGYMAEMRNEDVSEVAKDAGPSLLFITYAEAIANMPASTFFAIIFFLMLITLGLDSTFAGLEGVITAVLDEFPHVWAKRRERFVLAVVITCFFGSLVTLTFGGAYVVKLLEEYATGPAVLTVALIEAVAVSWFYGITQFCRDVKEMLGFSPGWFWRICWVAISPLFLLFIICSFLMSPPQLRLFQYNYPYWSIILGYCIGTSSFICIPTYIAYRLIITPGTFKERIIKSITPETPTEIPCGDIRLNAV

Test [1] deals with T1, Histone-lysine N-methyltransferase EZH2 (Homo sapiens, UniProt Q15910). In words: Affinity Biochemical interaction: (ELISA-based protein substrate methylation assay) EUB0002228a EZH2. The format is functional. A general note: In an ELISA, binding on a coated surface is turned into a signal by an enzyme label.
The target in test [2] is T1, Histone-lysine N-methyltransferase EZH2.
Test [3] deals with T2, Caspase-6 (Homo sapiens, UniProt P55212).
T2 sequence (P55212 whole entry): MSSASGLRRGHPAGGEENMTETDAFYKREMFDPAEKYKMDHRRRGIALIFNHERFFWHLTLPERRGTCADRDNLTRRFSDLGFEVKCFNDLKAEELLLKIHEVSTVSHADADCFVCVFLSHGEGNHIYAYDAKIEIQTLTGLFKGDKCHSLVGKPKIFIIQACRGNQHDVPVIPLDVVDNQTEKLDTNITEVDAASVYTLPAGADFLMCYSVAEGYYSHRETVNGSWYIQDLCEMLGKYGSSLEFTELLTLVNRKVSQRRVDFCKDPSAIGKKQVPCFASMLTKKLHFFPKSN

The target in test [4] is T2, Caspase-6. This is another data set of the same source.
For test [5], the target named is Sodium-dependent serotonin transporter (Homo sapiens, UniProt P31645).

As usually defined, the IC50 is the concentration that gives 50% inhibition. As usually defined, the Ki is a dissociation constant, usually derived from enzyme kinetics or from competition with a known ligand. The low end stands for a stronger hold on the target, the high end for a looser hold on the target. In test [1], `CCN(c1cc(C#CCN2CCOCC2)cc(C(=O)NCc2c(C)cc(C)[nH]c2=O)c1C)[C@H]1CC[C@H](N(C)CCOC)CC1` gave an IC50 of 6 nM. In test [2], this molecule had a Ki of less than 3 nM.
As for `CC[C@H](C)[C@H](NC(=O)[C@H](CCC(=O)O)NC(=O)[C@@H](NC(C)=O)C(C)C)C(=O)N[C@H](C=O)CC(=O)O`, the IC50 against Caspase-6 [3] stood at 16.2 nM; at Caspase-6 [4], 8.9 nM.
Molecule `CN(C)CC(c1ccc(O)cc1)C1(O)CCCCC1` (stereo not given) registered an inhibition constant (Ki) in test [5] of 40.2 nM.

For the origin of these results see ChEMBL document CHEMBL5723035, “Affinity Biochemical Literature for EUbOPEN Chemogenomic Library” (2024).
